Assay results reported in patent US9975946B2, “Antibodies obtainable using supramolecular constructs” (AC Immune SA, priority 2004, dated 2018).

Tested on: C57BL/6 mice
Test: ELISA of sera from mice immunized with liposomal antigens (immunogenicity)

PEG-Aβ1-16: Aβ1-16 (SEQ ID NO: 5) with N- and C-terminal PEG-lipid, reconstituted in DMPC/DMPEA/DMPG/cholesterol liposomes with monophosphoryl lipid A (DAEFRHDSGYEVHHQK; Amyloid-beta protein 42 N- and C-terminal PEG-lipid, liposomal with MPLA; UniProt P05067 672-687, looked up, fragment)
effect of additional ALUM on immunogenicity (ELISA) (antigen + ALUM): did not enhance the immunogenicity
immunogenicity (ELISA) (liposomes/lipid A antigen, immunization in 2 week intervals): significantly more immunogenic than palmitoylated Aβ1-16
